Data on three compounds can be found in ChEMBL document CHEMBL1155995, “Pyrrole[2,3-d]azepino compounds as agonists of the farnesoid X receptor (FXR)” (Bioorg Med Chem Lett, 2009).

This assay concerns the target T1, Bile acid receptor (Homo sapiens, UniProt Q96RI1).
T1 sequence (Q96RI1 whole entry): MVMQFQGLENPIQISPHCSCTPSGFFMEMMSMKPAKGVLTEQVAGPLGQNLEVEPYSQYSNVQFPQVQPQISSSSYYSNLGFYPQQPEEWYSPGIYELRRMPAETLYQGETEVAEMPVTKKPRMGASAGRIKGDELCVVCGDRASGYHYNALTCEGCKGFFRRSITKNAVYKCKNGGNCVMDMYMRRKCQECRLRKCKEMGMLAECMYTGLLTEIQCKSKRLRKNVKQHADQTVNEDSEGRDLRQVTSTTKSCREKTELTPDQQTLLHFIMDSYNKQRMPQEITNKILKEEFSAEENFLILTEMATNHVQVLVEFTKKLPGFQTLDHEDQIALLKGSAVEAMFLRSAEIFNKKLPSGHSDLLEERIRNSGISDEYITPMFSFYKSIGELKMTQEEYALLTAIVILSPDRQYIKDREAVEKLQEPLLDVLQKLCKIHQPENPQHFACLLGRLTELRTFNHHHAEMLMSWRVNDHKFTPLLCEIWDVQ

`CC(C)OC(=O)C1=CN(C(=O)C2CCCCC2)CC(C)(C)c2cc(C#N)[nH]c21` returned an EC50 of 6.5 nM.

`CC(C)OC(=O)C1=CN(C(=O)c2ccc(C#N)cc2)CC(C)(C)c2cc(C#N)[nH]c21` yielded an EC50 of 35 nM.

`CC(C)OC(=O)C1=CN(C(=O)c2cccc(Cl)c2)CC(C)(C)c2cc(C#N)[nH]c21`: the EC50 worked out at 12 nM.
